Measurements as given in patent US6858018B1.

Experiment: in vitro iontophoretic delivery through excised porcine skin in flow-through cells

remifentanil hydrochloride gave a Flux (Exp #3, 10 mg/ml in water, 500 uA, 3 mg, 24.00 hrs) of 0.13 μg/min/cm^2, a Flux (Exp #3, 10 mg/ml in water, 500 uA, 3 mg, −1.00 hrs) of 0.00 μg/min/cm^2 and a Flux (Exp #4, 2.5 mg/ml in water, 500 uA, 0.75 mg, 0.00 hrs) of 0.00 μg/min/cm^2. The Flux (Exp #4, 2.5 mg/ml in water, 500 uA, 0.75 mg, 1.00 hrs) was 0.00 μg/min/cm^2, the Flux (Exp #4, 2.5 mg/ml in water, 500 uA, 0.75 mg, 2.00 hrs) was 0.00 μg/min/cm^2 and the Flux (Exp #4, 2.5 mg/ml in water, 500 uA, 0.75 mg, 3.00 hrs) was 0.01 μg/min/cm^2. For the same substance, the Flux (Exp #4, 2.5 mg/ml in water, 500 uA, 0.75 mg, 4.00 hrs) was 0.03 μg/min/cm^2, the Flux (Exp #4, 2.5 mg/ml in water, 500 uA, 0.75 mg, 5.00 hrs) was 0.05 μg/min/cm^2 and the Flux (Exp #4, 2.5 mg/ml in water, 500 uA, 0.75 mg, 6.00 hrs) was 0.09 μg/min/cm^2. For the same substance, the Flux (Exp #4, 2.5 mg/ml in water, 500 uA, 0.75 mg, 7.00 hrs) was 0.11 μg/min/cm^2, the Flux (Exp #4, 2.5 mg/ml in water, 500 uA, 0.75 mg, 8.00 hrs) was 0.13 μg/min/cm^2 and the Flux (Exp #4, 2.5 mg/ml in water, 500 uA, 0.75 mg, 9.00 hrs) was 0.14 μg/min/cm^2. The Flux (Exp #4, 2.5 mg/ml in water, 500 uA, 0.75 mg, 10.00 hrs) was 0.15 μg/min/cm^2, the Flux (Exp #4, 2.5 mg/ml in water, 500 uA, 0.75 mg, 11.00 hrs) was 0.155 μg/min/cm^2 and the Flux (Exp #4, 2.5 mg/ml in water, 500 uA, 0.75 mg, 12.00 hrs) was 0.16 μg/min/cm^2. For the same substance, the Flux (Exp #4, 2.5 mg/ml in water, 500 uA, 0.75 mg, 13.00 hrs) was 0.167 μg/min/cm^2, the Flux (Exp #4, 2.5 mg/ml in water, 500 uA, 0.75 mg, 14.00 hrs) was 0.17 μg/min/cm^2 and the Flux (Exp #4, 2.5 mg/ml in water, 500 uA, 0.75 mg, 15.00 hrs) was 0.174 μg/min/cm^2. It also gave a Flux (Exp #4, 2.5 mg/ml in water, 500 uA, 0.75 mg, 16.00 hrs) of 0.17 μg/min/cm^2, a Flux (Exp #4, 2.5 mg/ml in water, 500 uA, 0.75 mg, 17.00 hrs) of 0.178 μg/min/cm^2 and a Flux (Exp #4, 2.5 mg/ml in water, 500 uA, 0.75 mg, 18.00 hrs) of 0.18 μg/min/cm^2. It also gave a Flux (Exp #4, 2.5 mg/ml in water, 500 uA, 0.75 mg, 19.00 hrs) of 0.178 μg/min/cm^2, a Flux (Exp #4, 2.5 mg/ml in water, 500 uA, 0.75 mg, 20.00 hrs) of 0.18 μg/min/cm^2 and a Flux (Exp #4, 2.5 mg/ml in water, 500 uA, 0.75 mg, 21.00 hrs) of 0.173 μg/min/cm^2. It also gave a Flux (Exp #4, 2.5 mg/ml in water, 500 uA, 0.75 mg, 22.00 hrs) of 0.17 μg/min/cm^2, a Flux (Exp #4, 2.5 mg/ml in water, 500 uA, 0.75 mg, 23.00 hrs) of 0.167 μg/min/cm^2 and a Flux (Exp #4, 2.5 mg/ml in water, 500 uA, 0.75 mg, 24.00 hrs) of 0.16 μg/min/cm^2. For the same substance, the Flux (Exp #9, 10 mg/ml in water, 1000 uA, 1 mg, 1.00 hrs) was 0.00 μg/min/cm^2, the Flux (Exp #9, 10 mg/ml in water, 1000 uA, 1 mg, 2.00 hrs) was 0.04 μg/min/cm^2 and the Flux (Exp #9, 10 mg/ml in water, 1000 uA, 1 mg, 3.00 hrs) was 0.06 μg/min/cm^2. It also gave a Flux (Exp #9, 10 mg/ml in water, 1000 uA, 1 mg, 4.00 hrs) of 0.07 μg/min/cm^2, a Flux (Exp #9, 10 mg/ml in water, 1000 uA, 1 mg, 5.00 hrs) of 0.08 μg/min/cm^2 and a Flux (Exp #9, 10 mg/ml in water, 1000 uA, 1 mg, 6.00 hrs) of 0.09 μg/min/cm^2. The Flux (Exp #9, 10 mg/ml in water, 1000 uA, 1 mg, 7.00 hrs) was 0.11 μg/min/cm^2, the Flux (Exp #9, 10 mg/ml in water, 1000 uA, 1 mg, 8.00 hrs) was 0.13 μg/min/cm^2 and the Flux (Exp #9, 10 mg/ml in water, 1000 uA, 1 mg, 9.00 hrs) was 0.14 μg/min/cm^2. It also gave a Flux (Exp #9, 10 mg/ml in water, 1000 uA, 1 mg, 10.00 hrs) of 0.16 μg/min/cm^2, a Flux (Exp #9, 10 mg/ml in water, 1000 uA, 1 mg, 11.00 hrs) of 0.19 μg/min/cm^2 and a Flux (Exp #9, 10 mg/ml in water, 1000 uA, 1 mg, 12.00 hrs) of 0.22 μg/min/cm^2. For the same substance, the Flux (Exp #9, 10 mg/ml in water, 1000 uA, 1 mg, 13.00 hrs) was 0.24 μg/min/cm^2, the Flux (Exp #9, 10 mg/ml in water, 1000 uA, 1 mg, 14.00 hrs) was 0.26 μg/min/cm^2 and the Flux (Exp #9, 10 mg/ml in water, 1000 uA, 1 mg, 15.00 hrs) was 0.28 μg/min/cm^2. The Flux (Exp #9, 10 mg/ml in water, 1000 uA, 1 mg, 16.00 hrs) was 0.30 μg/min/cm^2, the Flux (Exp #9, 10 mg/ml in water, 1000 uA, 1 mg, 17.00 hrs) was 0.33 μg/min/cm^2 and the Flux (Exp #9, 10 mg/ml in water, 1000 uA, 1 mg, 18.00 hrs) was 0.35 μg/min/cm^2. The Flux (Exp #9, 10 mg/ml in water, 1000 uA, 1 mg, 19.00 hrs) was 0.38 μg/min/cm^2, the Flux (Exp #9, 10 mg/ml in water, 1000 uA, 1 mg, 20.00 hrs) was 0.41 μg/min/cm^2 and the Flux (Exp #9, 10 mg/ml in water, 1000 uA, 1 mg, 21.00 hrs) was 0.44 μg/min/cm^2. The Flux (Exp #9, 10 mg/ml in water, 1000 uA, 1 mg, 22.00 hrs) was 0.46 μg/min/cm^2, the Flux (Exp #9, 10 mg/ml in water, 1000 uA, 1 mg, 23.00 hrs) was 0.48 μg/min/cm^2 and the Flux (Exp #9, 10 mg/ml in water, 1000 uA, 1 mg, 24.00 hrs) was 0.50 μg/min/cm^2. For the same substance, the Flux (Exp #10, 10 mg/ml in water, 100 uA, 1 mg, 0.00 hrs) was 0.00 μg/min/cm^2, the Flux (Exp #10, 10 mg/ml in water, 100 uA, 1 mg, 1.00 hrs) was 0.00 μg/min/cm^2 and the Flux (Exp #10, 10 mg/ml in water, 100 uA, 1 mg, 2.00 hrs) was 0.01 μg/min/cm^2. The Flux (Exp #10, 10 mg/ml in water, 100 uA, 1 mg, 3.00 hrs) was 0.03 μg/min/cm^2, the Flux (Exp #10, 10 mg/ml in water, 100 uA, 1 mg, 4.00 hrs) was 0.03 μg/min/cm^2 and the Flux (Exp #10, 10 mg/ml in water, 100 uA, 1 mg, 5.00 hrs) was 0.02 μg/min/cm^2. It also gave a Flux (Exp #10, 10 mg/ml in water, 100 uA, 1 mg, 6.00 hrs) of 0.02 μg/min/cm^2, a Flux (Exp #10, 10 mg/ml in water, 100 uA, 1 mg, 7.00 hrs) of 0.03 μg/min/cm^2 and a Flux (Exp #10, 10 mg/ml in water, 100 uA, 1 mg, 8.00 hrs) of 0.03 μg/min/cm^2. It also gave a Flux (Exp #10, 10 mg/ml in water, 100 uA, 1 mg, 9.00 hrs) of 0.03 μg/min/cm^2, a Flux (Exp #10, 10 mg/ml in water, 100 uA, 1 mg, 10.00 hrs) of 0.02 μg/min/cm^2 and a Flux (Exp #10, 10 mg/ml in water, 100 uA, 1 mg, 11.00 hrs) of 0.03 μg/min/cm^2. For the same substance, the Flux (Exp #10, 10 mg/ml in water, 100 uA, 1 mg, 12.00 hrs) was 0.03 μg/min/cm^2, the Flux (Exp #10, 10 mg/ml in water, 100 uA, 1 mg, 13.00 hrs) was 0.03 μg/min/cm^2 and the Flux (Exp #10, 10 mg/ml in water, 100 uA, 1 mg, 14.00 hrs) was 0.03 μg/min/cm^2. For the same substance, the Flux (Exp #10, 10 mg/ml in water, 100 uA, 1 mg, 15.00 hrs) was 0.03 μg/min/cm^2, the Flux (Exp #10, 10 mg/ml in water, 100 uA, 1 mg, 16.00 hrs) was 0.03 μg/min/cm^2 and the Flux (Exp #10, 10 mg/ml in water, 100 uA, 1 mg, 17.00 hrs) was 0.03 μg/min/cm^2. For the same substance, the Flux (Exp #10, 10 mg/ml in water, 100 uA, 1 mg, 18.00 hrs) was 0.03 μg/min/cm^2, the Flux (Exp #10, 10 mg/ml in water, 100 uA, 1 mg, 19.00 hrs) was 0.03 μg/min/cm^2 and the Flux (Exp #10, 10 mg/ml in water, 100 uA, 1 mg, 20.00 hrs) was 0.03 μg/min/cm^2. For the same substance, the Flux (Exp #10, 10 mg/ml in water, 100 uA, 1 mg, 21.00 hrs) was 0.03 μg/min/cm^2, the Flux (Exp #10, 10 mg/ml in water, 100 uA, 1 mg, 22.00 hrs) was 0.03 μg/min/cm^2 and the Flux (Exp #10, 10 mg/ml in water, 100 uA, 1 mg, 23.00 hrs) was 0.03 μg/min/cm^2. The Flux (Exp #10, 10 mg/ml in water, 100 uA, 1 mg, 24.00 hrs) was 0.03 μg/min/cm^2.

Some compounds may have been tested in ways that are not shown here.
